# Target: UBE2L3-Ub conjugate (human | , UniProt P68036 1-154; P0CG48 1-76, ubiquitin covalently conjugated (linkage for the ITC sample not stated))
# Amino acid sequences for entries named in this document (tags omitted). A change or cut given only in a name is not applied to a line headed by its entry.
# UniProt P68036: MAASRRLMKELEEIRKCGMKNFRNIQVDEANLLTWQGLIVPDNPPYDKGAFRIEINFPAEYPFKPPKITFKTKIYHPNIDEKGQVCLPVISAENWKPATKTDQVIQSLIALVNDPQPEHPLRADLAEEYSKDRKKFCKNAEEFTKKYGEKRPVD
# Assay: ITC; in the presence of M1-2Ub (1:4)
binder,measurement,value
HOIP (residues 697–1072) (domain or fragment) QECAVCGWALPHNRMQALTSCECTICPDCFRQHFTIALKEKHITDMVCPACGRPDLTDDTQLLSYFSTLDIQLRESLEPDAYALFHKKLTEGVLMRDPKFLWCAQCSFGFIYEREQLEATCPQCHQTFCVRCKRQWEEQHRGRSCEDFQNWKRMNDPEYQAQGLAMYLQENGIDCPKCKFSYALARGGCMHFHCTQCRHQFCSGCYNAFYAKNKCPEPNCRVKKSLHGHHPRDCLFYLRDWTALRLQKLLQDNNVMFNTEPPAGARAVPGGGCRVIEQKEVPNGLRDEACGKETPAGYAGLCQAHYKEYLVSLINAHSLDPATLYEVEELETATERYLHVRPQPLAGEDPPAYQARLLQKLTEEVPLGQSIPRRRK,Kd,1430 nM
